{
  "source": "patent US9101539B2",
  "about": "“Intranasal pharmaceutical compositions with improved pharmacokinetics” (SHIN NIPPON BIOMEDICAL LABORATORIES, LTD., priority 2009, dated 2015)",
  "conditions": "rhesus monkey, in vivo, inhaled or intranasal",
  "protocol": "Blood was obtained at 10, 20, 30, 60, 120, 240, and 480 minutes post-administration from the monkeys administered the solid dosage form. For the monkeys treated with the nasal spray, blood was obtained 5, 10, 20, 30, 60, 120, 240, and 480 minutes post-treatment.\nBlood was obtained at 5, 10, 20, 30, 60, 120, and 240 minutes post-administration.\nAdministered dose was 6 mg/animal. […] Blood was obtained at 5, 10, 20, 30, 60, 120, and 240 minutes post-administration.\n(§1) Administered dose was 6 mg/animal. […] Administered dose was 6 mg/animal. Blood was obtained at 5, 10, 20, 30, 60, 120, and 240 minutes post-administration.\nTotal dose was 6 mg/animal. Blood was obtained at 5, 10, 20, 30, 60, 120, and 240 minutes post-administration.\nas §1, §1\n(§2) Administered dose was 6 mg/animal. […] Administered dose was 6 mg/animal. […] Blood was obtained at 5, 10, 20, 30, 60, 120, and 240 minutes post-administration.\nas §2",
  "data": [
    {"smiles": "CNS(=O)(=O)Cc1ccc2[nH]cc(CCN(C)C)c2c1", "note": "[sumatriptan freebase]", "values": [
      {"measurement": "AUC", "value": "2865 ng:min/ml"},
      {"measurement": "Cmax", "value": 345, "unit": "ng/mL"}
    ]}
  ]
}
